Test results published in PubChem BioAssay (NCI).
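In this assay, cells in 96-well plates receive the compound at five concentrations for 48 hours. Endpoints are linearly interpolated between the surrounding concentrations. At the GI50, growth is halved. Definition used: TGI = concentration required for complete inhibition of growth.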

What was measured:
Experiment in all cases: NCI anticancer screen, dose series, 48 h
[1] = test system: ACHN renal
[2] = test system: DMS 273 small cell lung
[3] = test system: LXFL 529 NSCLC
[4] = test system: OVCAR-3 ovarian
[5] = test system: BT-549 breast
[6] = test system: MALME-3M melanoma
[7] = test system: XF 498 CNS
[8] = test system: MDA-MB-435
[9] = test system: CCRF-CEM leukemia
[10] = test system: K-562 leukemia
[11] = test system: RXF 393 renal
[12] = test system: OVCAR-8 ovarian
[13] = test system: IGROV1 ovarian
[14] = test system: 786-0 renal
[15] = test system: UACC-257 melanoma
[16] = test system: KM20L2 colon
[17] = test system: HCC-2998 colon
[18] = test system: LOX IMVI melanoma
[19] = test system: U251 CNS
[20] = test system: UACC-62 melanoma
[21] = test system: UO-31 renal
[22] = test system: PC-3 prostate
[23] = test system: KM12 colon
[24] = test system: SN12C renal
[25] = test system: NCI/ADR-RES ovarian
[26] = test system: SF-539 CNS
[27] = test system: CAKI-1 renal
[28] = test system: OVCAR-5 ovarian
[29] = test system: NCI-H522 lung
[30] = test system: SF-295 CNS
[31] = test system: HCT-15 colon
[32] = test system: DU-145 prostate
[33] = test system: SW-620 colon
[34] = test system: SR leukemia
[35] = test system: HOP-92 NSCLC
[36] = test system: TK-10 renal
[37] = test system: EKVX NSCLC
[38] = test system: RPMI-8226 leukemia
[39] = test system: MOLT-4 leukemia
[40] = test system: HL-60(TB) leukemia
[41] = test system: M14 melanoma
[42] = test system: HS 578T breast
[43] = test system: T-47D breast
[44] = test system: SNB-19 CNS
[45] = test system: DLD-1 colon
[46] = test system: MDA-N
[47] = test system: NCI-H460 lung
[48] = test system: SK-MEL-2 melanoma
[49] = test system: DMS 114 small cell lung
[50] = test system: A498 renal
[51] = test system: M19-MEL melanoma
[52] = test system: SF-268 CNS
[53] = test system: SK-MEL-5 melanoma
[54] = test system: HCT-116 colon
[55] = test system: HT29 colon
[56] = test system: NCI-H23 lung
[57] = test system: SK-OV-3 ovarian
[58] = test system: OVCAR-4 ovarian
[59] = test system: MCF7 breast
[60] = test system: COLO 205 colon
[61] = test system: HOP-18 NSCLC
[62] = test system: SK-MEL-28 melanoma
[63] = test system: HOP-62 NSCLC
[64] = test system: NCI-H322M lung
[65] = test system: NCI-H226 lung
[66] = test system: A549 NSCLC
[67] = test system: MDA-MB-231 breast

CS(=O)(=O)OCCN(CCOS(C)(=O)=O)c1ccc(C(=O)O)cc1
GI50 [1]: > 100 µM | TGI [1]: > 100 µM | GI50 [2]: > 100 µM | TGI [2]: > 100 µM | GI50 [3]: > 100 µM | TGI [3]: > 100 µM | GI50 [4]: > 100 µM | TGI [4]: > 100 µM | GI50 [5]: > 100 µM | TGI [5]: > 100 µM | GI50 [6]: > 100 µM | TGI [6]: > 100 µM | GI50 [7]: > 100 µM | TGI [7]: > 100 µM | GI50 [8]: > 100 µM | TGI [8]: > 100 µM | GI50 [9]: 53.8 µM | TGI [9]: > 100 µM | GI50 [10]: > 100 µM | TGI [10]: > 100 µM | GI50 [11]: > 100 µM | TGI [11]: > 100 µM | GI50 [12]: > 100 µM | TGI [12]: > 100 µM | GI50 [13]: > 100 µM | TGI [13]: > 100 µM | GI50 [14]: > 100 µM | TGI [14]: > 100 µM | GI50 [15]: > 100 µM | TGI [15]: > 100 µM | GI50 [16]: > 100 µM | TGI [16]: > 100 µM | GI50 [17]: > 100 µM | TGI [17]: > 100 µM | GI50 [18]: > 100 µM | TGI [18]: > 100 µM | GI50 [19]: > 100 µM | TGI [19]: > 100 µM | GI50 [20]: > 100 µM | TGI [20]: > 100 µM | GI50 [21]: > 100 µM | TGI [21]: > 100 µM | GI50 [22]: > 100 µM | TGI [22]: > 100 µM | GI50 [23]: > 100 µM | TGI [23]: > 100 µM | GI50 [24]: > 100 µM | TGI [24]: > 100 µM | GI50 [25]: > 100 µM | TGI [25]: > 100 µM | GI50 [26]: > 100 µM | TGI [26]: > 100 µM | GI50 [27]: > 100 µM | TGI [27]: > 100 µM | GI50 [28]: > 100 µM | TGI [28]: > 100 µM | GI50 [29]: > 100 µM | TGI [29]: > 100 µM | GI50 [30]: > 100 µM | TGI [30]: > 100 µM | GI50 [31]: > 100 µM | TGI [31]: > 100 µM | GI50 [32]: > 100 µM | TGI [32]: > 100 µM | GI50 [33]: > 100 µM | TGI [33]: > 100 µM | GI50 [34]: > 100 µM | TGI [34]: > 100 µM | GI50 [35]: > 100 µM | TGI [35]: > 100 µM | GI50 [36]: > 100 µM | TGI [36]: > 100 µM | GI50 [37]: > 100 µM | TGI [37]: > 100 µM | GI50 [38]: > 100 µM | TGI [38]: > 100 µM | GI50 [39]: > 100 µM | TGI [39]: > 100 µM | GI50 [40]: > 100 µM | TGI [40]: > 100 µM | GI50 [41]: > 100 µM | TGI [41]: > 100 µM | GI50 [42]: > 100 µM | TGI [42]: > 100 µM | GI50 [43]: > 100 µM | TGI [43]: > 100 µM | GI50 [44]: > 100 µM | TGI [44]: > 100 µM | GI50 [45]: > 100 µM | TGI [45]: > 100 µM | GI50 [46]: > 100 µM | TGI [46]: > 100 µM | GI50 [47]: > 100 µM | TGI [47]: > 100 µM | GI50 [48]: > 100 µM | TGI [48]: > 100 µM | GI50 [49]: > 100 µM | TGI [49]: > 100 µM | GI50 [50]: > 100 µM | TGI [50]: > 100 µM | GI50 [51]: > 100 µM | TGI [51]: > 100 µM | GI50 [52]: > 100 µM | TGI [52]: > 100 µM | GI50 [53]: > 100 µM | TGI [53]: > 100 µM | GI50 [54]: > 100 µM | TGI [54]: > 100 µM | GI50 [55]: > 100 µM | TGI [55]: > 100 µM | GI50 [56]: > 100 µM | TGI [56]: > 100 µM | GI50 [57]: > 100 µM | TGI [57]: > 100 µM | GI50 [58]: > 100 µM | TGI [58]: > 100 µM | GI50 [59]: > 100 µM | TGI [59]: > 100 µM | GI50 [60]: > 100 µM | TGI [60]: > 100 µM | GI50 [61]: > 100 µM | TGI [61]: > 100 µM | GI50 [62]: > 100 µM | TGI [62]: > 100 µM | GI50 [63]: > 100 µM | TGI [63]: > 100 µM | GI50 [64]: > 100 µM | TGI [64]: > 100 µM | GI50 [65]: > 100 µM | TGI [65]: > 100 µM | GI50 [66]: > 100 µM | TGI [66]: > 100 µM | GI50 [67]: > 100 µM | TGI [67]: > 100 µM
